Yeast mating assay B: variants of the scFv Ab-14

Antigen: PDVDLGDISGINAS, a 14-residue peptide of the SARS-CoV-2 spike HR2 region.

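These sequences belong to a second round, designed from the earlier measurements on random variants of the parent. Their group label is 14L_En_Gen (En: ensemble of fine-tuned language models; Gen: genetic algorithm). The assay is AlphaSeq: two haploid yeast populations carry antibody and antigen on their surface. Mating (16 h, 30 °C) was followed by selection of diploids and sequencing of their barcodes. Each replicate has its own calibration line, from reference interactions of the BCL2 family. Each pool was mated in six replicate cultures.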

Each scFv is VH, the linker GGGGSGGGGSGGGGS, VL, as in the parent Ab-14, and differs from it in the CDRs of the light chain only.
VH: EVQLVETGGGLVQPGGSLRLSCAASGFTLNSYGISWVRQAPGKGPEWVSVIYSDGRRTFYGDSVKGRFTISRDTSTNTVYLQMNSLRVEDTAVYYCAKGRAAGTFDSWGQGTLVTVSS
VL: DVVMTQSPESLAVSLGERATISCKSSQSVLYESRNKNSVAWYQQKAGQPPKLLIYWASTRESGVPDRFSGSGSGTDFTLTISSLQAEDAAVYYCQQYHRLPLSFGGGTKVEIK

Each variant is given by its three light chain CDRs, as the data file delimits them; those of the parent are KSSQSVLYESRNKNSVA, WASTRES, QQYHRLPLS. Affinities are written as log10 Kd with Kd in nM; a lower number is a better binder. The mean shown is taken over the replicates in which the pair was detected. "n.d." means that the variant was in the library but no mating with the target was seen in that replicate; the authors take this as a sign of poor binding, and no number exists. As a blank, each scFv also met three strains without target: over all light chain designs, 4% of these pairings were detected, typically at 2.64 and seldom below 1.59. The control count says in how many pairings with the empty strains this scFv gave a signal, with their mean in brackets.

| # | CDR-L1 | CDR-L2 | CDR-L3 | replicates, log10 nM | mean log10 Kd (nM) | empty controls |
|---|---|---|---|---|---|---|
| 1 | KLYEMSASTMSNIRNVA | DNSTREY | QQYNRLPLS | n.d. n.d. n.d. n.d. n.d. n.d. | n.d. | 0/18 |
| 2 | IVSQLMIWGMKLKNSIA | EAETRLN | QQYDRLPLF | n.d. n.d. n.d. n.d. n.d. n.d. | n.d. | 0/18 |
| 3 | MVNGIMDHLSKNTNNVA | ETSTRNS | QQYDRLPLA | 0.55 -0.02 0.38 0.14 1.19 0.40 | 0.44 | 0/18 |
| 4 | MISQLYNMGQFAINSVA | QASNRNE | QQYDRLPLI | 2.35 2.22 2.00 2.04 1.42 1.45 | 1.91 | 0/18 |
| 5 | MISQIYNMGQFAINSVA | QASVRNE | QQYDRLPLQ | 1.84 1.30 0.75 1.38 1.39 1.73 | 1.40 | 0/18 |
| 6 | SLGLVTMLEYAGRNSVA | NNSTREA | QQYDRLPLS | n.d. n.d. n.d. n.d. 2.73 n.d. | 2.73 | 0/18 |
| 7 | IVSQLMLWGYHAKNSIA | EAETRFN | QQYDRLPLF | n.d. n.d. n.d. n.d. n.d. n.d. | n.d. | 0/18 |
| 8 | IVSQLMLWGHLAKNSIA | EAENRLN | QQYDRLPLF | n.d. 1.25 1.35 1.00 1.19 0.63 | 1.08 | 0/18 |
| 9 | HMSMLTLGGLRNRNSVA | QMTTREN | QQYDRLPLI | 0.64 0.71 0.70 0.72 0.79 1.10 | 0.77 | 2/18 (2.71) |
| 10 | TIGGTLMYGYRNRSNVA | EVSERLN | QQYDRLPLM | 1.61 2.84 1.36 2.44 1.70 1.33 | 1.88 | 1/18 (3.25) |
| 11 | MLYGLSASMSKNVNNVA | EMTTREV | QQYDRLPLV | 1.66 1.57 1.19 1.27 n.d. 1.66 | 1.47 | 0/18 |
| 12 | MISQLMNLGQFAINSVA | QASIRNS | QQYDRLPLI | 1.09 1.22 1.43 1.64 0.84 1.12 | 1.22 | 0/18 |
| 13 | MISQLYNMGQFAINSVA | QASERNE | QQYDRLPLI | 2.24 n.d. n.d. n.d. n.d. n.d. | 2.24 | 0/18 |
| 14 | MISQLYNMGSFAINSVA | QASVRYE | QQYDRLPLQ | n.d. n.d. n.d. n.d. n.d. n.d. | n.d. | 0/18 |
| 15 | TISQMHSSFSQTINNVA | EVSTREK | QQYDRLPLA | 0.00 0.04 0.06 0.07 -0.09 0.14 | 0.04 | 4/18 (2.89) |
| 16 | HITMGMYVHGRHHSSIA | QAETREK | QQYDRLPLM | 1.69 1.76 1.62 1.48 2.20 1.46 | 1.70 | 1/18 (2.63) |
| 17 | KVSEFMRGLMMRKDSIA | DNVTRSN | QQYDRLPLS | 1.08 1.05 0.56 1.24 1.37 1.71 | 1.17 | 0/18 |
| 18 | MLSQMWGIGMKAKNSVA | QASMRFN | QQYDRLPLI | 1.74 2.20 1.42 1.58 2.45 1.97 | 1.89 | 0/18 |
| 19 | KFSQMVNSMSVSHSAVA | EMSTRPE | QQYNRLPLS | 0.34 0.47 -0.15 0.54 0.16 0.15 | 0.25 | 2/18 (3.12) |
| 20 | MMSQVQGQGTRHRNNVA | QTETREP | QQYDRLPLV | 1.68 1.05 0.97 1.04 1.25 1.13 | 1.19 | 1/18 (2.24) |
| 21 | MISSLYNMGQFAINSVA | QASTRNE | QQYDRLPLM | n.d. 1.04 2.08 1.53 1.61 1.53 | 1.56 | 0/18 |
| 22 | KFSQMANQFSVSMNAVA | EMSTREN | QQYNRLPLA | 0.62 0.42 0.24 0.48 0.49 0.30 | 0.43 | 0/18 |
| 23 | HITYGMYVSGRYKSNIA | QAETRAK | QQYDRLPLI | 1.61 2.13 1.65 1.16 0.94 2.29 | 1.63 | 0/18 |
| 24 | TISQMTSLFSQSINSVA | EVSMREE | QQYDRLPLM | 0.86 0.97 0.58 0.65 1.02 0.78 | 0.81 | 1/18 (4.45) |
| 25 | TIGAQLMYGMRNWSNVA | EVSERLN | QQYDRLPLF | 1.05 1.12 0.93 1.03 1.81 1.47 | 1.23 | 0/18 |
| 26 | KIGGTLNTLMHQKNNVA | DLVEREN | QQYFRLPLS | 0.18 0.09 0.29 0.04 0.14 0.32 | 0.18 | 0/18 |
| 27 | KISQMVKVGMTHGNSIA | EEQTRAK | QQYHRLPLA | 0.98 0.80 0.94 1.19 0.57 1.21 | 0.95 | 1/18 (2.42) |
| 28 | HITYGMMLYGRHSKSIA | QAEERAK | QQYDRLPLV | n.d. 2.96 1.43 1.63 n.d. 2.52 | 2.14 | 0/18 |
| 29 | KVSEFMKGLMMRKDNIA | DNNTRQN | QQYDRLPLS | 1.17 0.52 0.78 0.65 0.72 1.41 | 0.88 | 1/18 (1.70) |
| 30 | TIGQTLMQGIRNRSNVA | EVSQRLN | QQYDRLPLT | 1.56 1.19 0.70 0.42 0.99 0.91 | 0.96 | 1/18 (2.03) |
| 31 | MLSEVLHMLGVAKNSIA | DLVIRAN | QQYHRLPLM | n.d. n.d. n.d. n.d. n.d. n.d. | n.d. | 1/18 (2.85) |
| 32 | TLDMVARGLTRKEDSVA | DNSTRED | QQYDRLPLS | n.d. n.d. n.d. n.d. n.d. n.d. | n.d. | 0/18 |
| 33 | HITYGMMVHGRHSKSIA | QAEERAK | QQYDRLPLS | n.d. n.d. n.d. 0.34 n.d. n.d. | 0.34 | 0/18 |
| 34 | TISGMTNQATSKHNSVA | NVTMRPE | QQYHRLPLS | 0.93 1.76 1.22 1.00 0.96 1.61 | 1.24 | 1/18 (2.32) |
| 35 | MVNGIMDHLSKQTNNVA | ETTTRNS | QQYDRLPLS | 1.69 1.17 1.65 1.29 1.01 1.81 | 1.44 | 1/18 (3.45) |
| 36 | HMSMLTMSGMKQRNSVA | QMTMREN | QQYDRLPLA | 1.47 0.66 1.08 0.88 1.15 1.24 | 1.08 | 1/18 (3.33) |
| 37 | MLSEVLHMLGVKTNSIA | DLVLRAN | QQYHRLPLF | 1.77 2.10 1.09 1.47 2.79 1.85 | 1.85 | 1/18 (1.67) |
| 38 | IVSQLMLWGMHAKNSIA | EAQTRLN | QQYDRLPLF | n.d. n.d. n.d. n.d. n.d. 1.59 | 1.59 | 0/18 |
| 39 | MISQIYNMGQFAINSVA | QASERSN | QQYDRLPLT | 0.81 0.71 0.52 0.63 0.43 0.45 | 0.59 | 0/18 |
| 40 | RLSALSGIQEVERNSVA | QNSTREE | QQYDHLPLS | n.d. n.d. 2.43 2.49 3.87 1.71 | 2.63 | 4/18 (2.88) |
| 41 | MMSQVTGSGQRHRNNVA | QTSMREP | QQYDRLPLI | 0.97 0.89 0.55 0.69 0.78 1.34 | 0.87 | 1/18 (2.07) |
| 42 | KISQMVRVGSTASNSIA | EEQTRAK | QQYHRLPLS | 1.46 0.77 0.42 0.50 0.67 2.85 | 1.11 | 0/18 |
| 43 | HMSMLTLQGMRHRNSVA | QMTTRVN | QQYDHLPLA | 1.34 1.52 1.04 1.21 1.66 1.36 | 1.35 | 1/18 (2.62) |
| 44 | MISMNIYGVYRNRDNVA | HASMREN | QCYDRLPLS | 1.56 1.62 2.16 1.16 1.94 2.39 | 1.80 | 1/18 (3.21) |
| 45 | QIYQAMHNLMQKKNNVA | DVNERGA | QQYYRLPLS | 0.54 0.48 0.02 0.00 0.43 0.59 | 0.35 | 1/18 (3.34) |

Excerpt, the first 7 entries:

CDR-L1,CDR-L2,CDR-L3,"replicates, log10 nM",mean log10 Kd (nM),empty controls
KLYEMSASTMSNIRNVA,DNSTREY,QQYNRLPLS,n.d. n.d. n.d. n.d. n.d. n.d.,n.d.,0/18
IVSQLMIWGMKLKNSIA,EAETRLN,QQYDRLPLF,n.d. n.d. n.d. n.d. n.d. n.d.,n.d.,0/18
MVNGIMDHLSKNTNNVA,ETSTRNS,QQYDRLPLA,0.55 -0.02 0.38 0.14 1.19 0.40,0.44,0/18
MISQLYNMGQFAINSVA,QASNRNE,QQYDRLPLI,2.35 2.22 2.00 2.04 1.42 1.45,1.91,0/18
MISQIYNMGQFAINSVA,QASVRNE,QQYDRLPLQ,1.84 1.30 0.75 1.38 1.39 1.73,1.40,0/18
SLGLVTMLEYAGRNSVA,NNSTREA,QQYDRLPLS,n.d. n.d. n.d. n.d. 2.73 n.d.,2.73,0/18
IVSQLMLWGYHAKNSIA,EAETRFN,QQYDRLPLF,n.d. n.d. n.d. n.d. n.d. n.d.,n.d.,0/18

Values of this round are not directly comparable with the first-round values of the same sequences. Of ten entries with the parent sequence, four were seen in most replicates (averages 0.34 to 2.37), three in one and three in none, so single entries are noisy. The authors' rule: three or more of the six replicates give a measured affinity, fewer mean a poor binder.

Source: Li et al. 2023 (doi:10.1038/s41467-023-39022-2), MIT Lincoln Laboratory and A-Alpha Bio; data file from the FLAb repository.